Our source for the Selectivity for VAP-1 SSAO over MAO and IC50 values is US7499847B2, “Crystalline VAP-1 and uses thereof” (Biotie Therapies Corporation, priority 2003, dated 2009).

Protein sequences, listed by entry. Tags and fused reporters are not part of them.
UniProt Q16853, whole entry: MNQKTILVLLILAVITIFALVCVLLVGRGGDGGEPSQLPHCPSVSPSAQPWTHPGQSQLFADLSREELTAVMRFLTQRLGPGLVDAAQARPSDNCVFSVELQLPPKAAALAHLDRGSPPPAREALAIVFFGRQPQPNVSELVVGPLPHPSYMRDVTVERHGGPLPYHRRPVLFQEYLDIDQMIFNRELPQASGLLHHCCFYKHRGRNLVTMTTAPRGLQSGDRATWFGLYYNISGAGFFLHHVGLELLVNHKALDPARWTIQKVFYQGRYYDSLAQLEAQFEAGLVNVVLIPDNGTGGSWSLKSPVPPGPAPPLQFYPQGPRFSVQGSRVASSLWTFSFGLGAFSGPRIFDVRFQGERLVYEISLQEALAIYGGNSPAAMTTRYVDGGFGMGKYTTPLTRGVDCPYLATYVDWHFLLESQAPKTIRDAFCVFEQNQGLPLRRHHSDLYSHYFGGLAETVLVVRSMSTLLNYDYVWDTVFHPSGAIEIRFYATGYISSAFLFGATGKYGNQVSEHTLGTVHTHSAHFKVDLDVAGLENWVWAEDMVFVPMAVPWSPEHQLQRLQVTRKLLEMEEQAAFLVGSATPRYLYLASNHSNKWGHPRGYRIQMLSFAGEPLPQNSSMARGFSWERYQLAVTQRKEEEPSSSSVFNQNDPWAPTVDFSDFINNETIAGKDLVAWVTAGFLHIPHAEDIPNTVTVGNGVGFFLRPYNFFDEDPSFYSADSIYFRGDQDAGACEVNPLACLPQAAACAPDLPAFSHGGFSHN

In experiment [1] the target is Recombinant human VAP-1 SSAO (Homo sapiens, UniProt Q16853). The experiment is described as follows: VAP-1 SSAO activity, coupled colourimetric assay (benzylamine substrate). The note with it: for Selectivity for VAP-1 SSAO over MAO: ratio of total rat MAO IC50 to human VAP-1 SSAO IC50; for IC50: read-out: VAP-1 SSAO inhibitory activity IC50, CHO cell lysate with recombinant human VAP-1 SSAO, 1 mM benzylamine, 1 h at 37° C. It is filed as biochemical. The procedure:
VAP-1 SSAO activity was measured using the coupled colourimetric method essentially as described for monoamine oxidase and related enzymes. Recombinant human VAP-1 SSAO expressed in Chinese Hamster Ovary (CHO) cells was used as a source of VAP-1 SSAO for activity measurements. Native CHO cells have negligible SSAO activity. These cells and their culture have previously been described (Smith D J et al., 1998).
A cell lysate was prepared by suspending approximately 3.6×10^8 cells in 25 ml lysis buffer (150 mM NaCl, 10 mM Tris-Base pH 7.2, 1.5 mM MgCl2, 1% NP40) and incubating at 4° C. overnight on a rotating table. The lysate was clarified by centrifugation at 18000 g for 5 min at room temperature and the supematant used directly in the assay.
The VAP-1 SSAO assay was performed in 96 well microtitre plates as follows. To each well was added a predetermined amount of inhibitor if required. The amount of inhibitor varied in each assay but was generally at a final concentration of between 1 nM and 50 μM. Controls lacked inhibitor. The inhibitor was in a total volume of […] in water. The following reagents were then added. 0.2M potassium phosphate buffer pH 7.6 to a total reaction volume of 200 μl, 45 μl of freshly made chromogenic solution containing 1 mM 2,4-dichlorophenol, 500 μM 4-aminoantipyrine and 4 U/ml horseradish peroxidase and an amount of CHO cell lysate containing VAP-1 SSAO that caused a change of 0.6 A490 per h. This was within the linear response range of the assay.
The plates were incubated for 30 min at 37° C. and the background absorbance measured at 490 nm using a Wallac Victor II multilabel counter. To initiate the enzyme reaction 20 μl 10 mM benzylamine (final concentration=1 mM) was added and the plate incubated for 1 h at 37° C.
The increase in absorbance, reflecting VAP-1 SSAO activity, was measured at 490 nm. Inhibition was presented as percent inhibition compared to control after correcting for background absorbance and IC50. values calculated using GraphPad Prism.

The test system of experiment [2] is Total rat MAO (rat liver mitochondrial preparate). The experiment is described as follows: Total rat MAO activity, colourimetric assay (tyramine substrate). The following applies: read-out: Total MAO inhibitory activity IC50; rat liver MAO preparation, 0.5 mM tyramine, 1 h at 37° C. Format: biochemical. The procedure: Rat MAO was prepared from rat liver by rinsing a 1 g liver sample several times in 14 ml KCl-EDTA-solution to remove all blood. Then 1 g liver sample was homogenised in 4 ml ice-cold potassium phosphate buffer (0.1 M, pH 7.4) with an Ultra-Turrax homogeniser (setting 11 000 rpm, 4×10 s). After centrifugation at 500 g for 10 min at 4° C. the supematant was carefully withdrawn and was centrifuged at 12 300 g for 15 min at 4° C. The supernatant was discharged and sedimented mitochondria were resuspended in 4 ml fresh phosphate buffer and centrifuged as previously. The mitochondria were suspended in 4 ml phosphate buffer and homogenized with an Ultra-Turrax homogeniser (setting 11 000 rpm, 2×10 s). Mitochondrial preparate was aliquoted and stored at −70° C. […] To each well was added a predetermined amount of inhibitor if required. The amount of inhibitor varied in each assay but was generally at a final concentration of between 10 nM and […]. Controls lacked inhibitor. […] The plates were incubated for 30 min at 37° C. and the background absorbance measured at 490 nm using a Wallac Victor II multilabel counter. […] The increase in absorbance, reflecting MAO activity, was measured at 490nm. Inhibition was presented as percent inhibition compared to control after correcting for background absorbance and IC50 values calculated using GraphPad Prism. […]

Broadly, the IC50 is the point on the concentration scale where inhibition reaches its midpoint. On to `COc1cccc(OC[C@H](O)CN(C)N)c1`, for which, in experiment [1], the Selectivity for VAP-1 SSAO over MAO worked out at 62 and the IC50 was 0.39 µM. In addition, the IC50 in experiment [2] came to 21 µM.
Take `COc1cccc(OC[C@@H](O)CN(C)N)c1`: the Selectivity for VAP-1 SSAO over MAO in experiment [1] amounted to 94. The IC50 in experiment [1] worked out at 0.34 µM; in experiment [2] it was 32 µM.
